Experimental data as given in patent US8791105B2, “Methods for alleviating chronic pain and improving performance of cattle undergoing dehorning or castration” (Kansas State University Research Foundation, priority 2010, dated 2014).
Read-outs that look alike come from different tables or passages of the source.

Key:
[1] = Pharmacokinetics of oral meloxicam and gabapentin in the bovine lameness study (Example 6); settings: gabapentin 15 mg/kg PO with meloxicam; Period 1, single dose
[2] = gabapentin powder 15 mg/kg PO with meloxicam 0.5 mg/kg, mean
[3] = gabapentin powder 15 mg/kg PO with meloxicam 0.5 mg/kg, median
[4] = gabapentin whole capsules 10 mg/kg PO, mean
[5] = gabapentin whole capsules 10 mg/kg PO, median

Question: For “1-(aminomethyl) cyclohexane acetic acid [gabapentin]”, which adverse effects (after oral administration of gabapentin (10 mg/kg)) is on record?
Answer: No adverse effects were noted

Question: What about the AUC [2] of the same substance?
Answer: 70290 ng·h/mL

Question: What about the AUC extrapolated [2] of the same substance?
Answer: 1.63%

Question: What about the AUMC [2] of the same substance?
Answer: 1170.45 h * h * μg/mL

Question: What about the Cl/F [2] of the same substance?
Answer: 3.88 mL/min/kg

Question: What about the Cmax [2] of the same substance?
Answer: 3570 ng/mL

Question: What about the MRT [2] of the same substance?
Answer: 17.05 h

Question: What about the λz [2] of the same substance?
Answer: 0.09 h⁻¹

Question: What about the AUC [3] of the same substance?
Answer: 71030 ng·h/mL

Question: And the AUC extrapolated [3]?
Answer: 1.1%

Question: And the AUMC [3]?
Answer: 1127.2 h * h * μg/mL

Question: And the Cl/F [3]?
Answer: 3.52 mL/min/kg

Question: And the Cmax [3]?
Answer: 3700 ng/mL

Question: And the MRT [3]?
Answer: 16.2 h

Question: What about the “T½ λz” value [3] of the same substance?
Answer: 7.4 h

Question: What about the λz [3] of the same substance?
Answer: 0.094 h⁻¹

Question: And the AUC [4]?
Answer: 59730 ng·h/mL

Question: And the AUC extrapolated [4]?
Answer: 27.78%

Question: And the AUMC [4]?
Answer: 1273.15 h * h * μg/mL

Question: What about the Cl/F [4] of the same substance?
Answer: 3.42 mL/min/kg

Question: And the Cmax [4]?
Answer: 2970 ng/mL

Question: And the MRT [4]?
Answer: 19.82 h

Question: And the “T½ λz” value [4]?
Answer: 11.02 ± 3.68 h

Question: And the λz [4]?
Answer: 0.08 h⁻¹

Question: What about the AUC [5] of the same substance?
Answer: 61900 ng·h/mL

Question: And the AUC extrapolated [5]?
Answer: 24.4%

Question: And the AUMC [5]?
Answer: 1102.1 h * h * μg/mL

Question: What about the Cl/F [5] of the same substance?
Answer: 2.8 mL/min/kg

Question: And the Cmax [5]?
Answer: 2900 ng/mL

Question: And the MRT [5]?
Answer: 18.1 h

Question: What about the “T½ λz” value [5] of the same substance?
Answer: 9.2 h

Question: What about the λz [5] of the same substance?
Answer: 0.1 h⁻¹

Question: What about the Tmax [1] of the same substance?
Answer: 16 h
